# Reference: patent US9803021B2 (The Regents of the University of California, priority 2012, dated 2017)
# What was measured:
# Assay type in all cases: cell-based, human
# NCI-H929 [1] = test: MTS assay (cell viability / metabolic activity); conditions: 3 days
# Protocol: (§1) Percent cell viability was determined using MTS solution (Promega, Madison, Wis.) by measuring absorbance at 490 nm using a Synergy HT Multi-Detection Microplate Reader (BioTek Instruments, Inc., Winooski, Vt.) with untreated cells being 100%. GraphPad Prism (GraphPad Software Inc., La Jolla, Calif.) was used to analyze data by non-linear regression with the log (inhibitor) vs. the response with a variable slope with the IC50 calculated. Data are expressed as a percentage of maximum metabolic activity. The experiments were performed in triplicate.
# as §1, with “Metabolic activity” for “Percent cell viability”, “(Promega)” for “(Promega, Madison, Wis.)”, “Instruments Inc.)” for “Instruments, Inc., Winooski, Vt.)”, “Inc.)” for “Inc., La Jolla, Calif.)”, “versus” for “vs.”, “slope.” for “slope with the IC50 calculated.”
# ANBL-6 [2] = test: Apoptosis assay (Annexin V / PI flow cytometry); conditions: 3 days
# Protocol: (§2) Cells were analyzed by flow cytometry using FlowJo software.
# (§3) Cells were stained with Alexa Fluor 488-labeled Annexin V and propidium iodide (PI) using the Vybrant Apoptosis Kit #2 (Molecular Probes) as per manufacturer's instructions and analyzed by flow cytometry.
# MM1-144 [3] = test: Apoptosis assay (Annexin V / PI flow cytometry); conditions: 3 days
# Protocol: as §2, §3
# NCI-H929 [4] = test: Apoptosis assay (Annexin V / PI flow cytometry); conditions: 3 days
# Protocol: as §2, §3
# OCI-My5 [5] = test: Apoptosis assay (Annexin V / PI flow cytometry); conditions: 3 days; for induction of apoptosis, result in words: OCI-My5, 500 pM (also 1 nM)
# Protocol: as §2, §3
# U266 [6] = test: Apoptosis assay (Annexin V / PI flow cytometry); conditions: 3 days
# Protocol: as §2, §3
# 8226/S = test: Cell cycle analysis (PI DNA content, flow cytometry); conditions: 500 pM, 4 days
# Protocol: (§4) Cells were incubated with 1 ml of hypotonic DNA staining buffer (1 mg/ml sodium citrate, 100 μg/ml PI, 20 μg/ml RNase A, and 0.3% Triton X-100 in dH2O) for 30-60 min at 4° C. in the dark. Cells were analyzed by flow cytometry and cell cycle analysis performed using FlowJo software with the Watson Model.
# (§5) Cells were incubated with 1 ml of hypotonic DNA staining buffer (1 mg/ml sodium citrate, 100 μg/ml PI, 20 μg/ml RNase A, and 0.3% Triton X-100) for 30-60 minutes at 4° C. in the dark. Cells were analyzed by flow cytometry and cell cycle analysis performed using FlowJo software with the Watson Model.
# ANBL-6 [7] = test: as above; conditions: ANBL-6, 500 pM, 4 days
# Protocol: as §4, §5
# MM1-144 [8] = test: as above; conditions: MM1-144, 500 pM, 4 days
# Protocol: as §4, §5
# NCI-H929 [9] = test: as above; conditions: NCI-H929, 500 pM, 4 days
# Protocol: as §4, §5
# OCI-My5 [10] = test: as above; conditions: OCI-My5, 500 pM, 4 days
# Protocol: as §4, §5
# U266 [11] = test: as above; conditions: U266, 500 pM, 4 days
# Protocol: as §4, §5
# ANBL-6 [12] = test: Senescence induced β-gal activity at pH 6 (C12FDG, flow cytometry); conditions: ANBL-6, 1 nM, 3 days (data not shown)
# Protocol: (§6) Senescence induced β-galactosidase (β-gal) activity was detected as described previously (Debacq-Chainiaux et al. (2009) Nature Protocols, 4: 1798-1806). […] To induce lysosomal alkalinization, cells were incubated in 100 nM bafilomycin A1 (Sigma) for 1 h. Then cells were incubated for 30 min with the β-gal substrate dodecanoylaminofluorescein di-β-D-galactopyranoside (C12FDG; Invitrogen), which becomes fluorescent after cleavage by β-gal. After washing twice with cold PBS, cells were resuspended in cold PBS containing 1 mM phenylethyl thiogalactoside (PETG), a β-gal inhibitor, and analyzed by flow cytometry for C12-fluorescein.
# (§7) Intracellular β-galactosidase (β-gal) activity was measured as an indicator for replicative senescence. […] After treatment, cells were incubated with 100 nM bafilomycin A1 (Sigma) for 1 hour to induce lysosomal alkalinization. Then cells were incubated for 30 minutes with the 33 μM of β-gal substrate dodecanoylaminofluorescein di-β-D-galactopyranoside (C12FDG; Invitrogen), which becomes fluorescent after cleavage to C12-fluorescein. After washing twice with cold PBS, cells were resuspended in cold PBS containing 1 mM phenylethyl thiogalactoside (PETG), a β-gal inhibitor, and analyzed by flow cytometry for C12-fluorescein.
# MM1-144 [13] = test: as above; conditions: MM1-144, 1 nM, 3 days
# Protocol: as §6, §7
# NCI-H929 [14] = test: as above; conditions: 1 nM, 3 days
# Protocol: as §6, §7
# OCI-My5 [15] = test: as above; conditions: OCI-My5, 1 nM, 3 days (also 4, 6, 7 days)
# Protocol: as §6, §7
# U266 [16] = test: as above; conditions: U266, 1 nM, 3 days
# Protocol: as §6, §7
# OCI-My 5 cells = test: Cell proliferation assay (3[H]-thymidine incorporation); conditions: OCI-My 5, 0.3 pM-25 nM, 3 days
# Protocol: The proliferative status of the cells was determined by measuring ^3[H]-thymidine incorporation.
# MM1-144 [17] = test: Ki-67 stain (flow cytometry); conditions: MM1-144, 500 pM, 3 days
# Protocol: (§8) Senescence induced β-galactosidase (β-gal) activity was detected as described previously (Debacq-Chainiaux et al. (2009) Nat. Protoc., 4: 1798-1806) and in Supplemental methods. To detect Ki-67 protein, cells were stained and analyzed by flow cytometry as described in Supplemental methods.
# (§9) After treatment, cells were fixed with methanol on ice and then incubated with anti-Ki-67 rabbit IgG (Abcam). Cells were then stained with anti-rabbit IgG-FITC (Sigma) and analyzed by flow cytometry.
# NCI-H929 [18] = test: Ki-67 stain (flow cytometry); conditions: NCI-H929, 500 pM, 3 days
# Protocol: as §8, §9
# ppRb in MM1-144 = test: Western blot of ppRb; conditions: MM1-144, 1 nM, 48 hours
# Protocol: (§10) Cells were lysed using RIPA buffer (50 mM Tris HCl pH 8, 150 mM NaCl, 1% NP-40, 0.5% sodium deoxycholate, 0.1% SDS) containing a protease inhibitor cocktail (Roche Applied Science, Indianapolis, Ind.). The cytosolic fractions were reduced with β-mercaptoethanol and separated by SDS-PAGE. Following transfer to nitrocellulose membrane (Whatman, Piscataway, N.J.) and blocking, samples were incubated with the following primary rabbit antibodies: anti-IRF4 (Epitomics, Berlingham, Calif.), anti-glyceraldehyde-3-phosphate dehydrogenase (GAPDH; Sigma), anti-ppRb Ser807/811 (Santa Cruz Biotechnology, Santa Cruz, Calif.), anti-cyclin D (Millipore, Billerica, Mass.), or anti-β tubulin (Abcam, Cambridge, Mass.). Secondary anti-rabbit IgG-HRP (GE Healthcare, Billerica, Mass.) was used and the blots were developed using enhanced chemiluminescence (ECL; Thermo Scientific, Waltham, Mass.).
# (§11) Cells were lysed using RIPA buffer (50 mM Tris-HCl pH 8, 150 mM NaCl, 1% NP-40, 0.5% sodium deoxycholate, 0.1% SDS) containing a protease inhibitor cocktail (Roche Applied Science). The cytosolic fractions were reduced with β-mercaptoethanol and separated by SDS PAGE. Following transfer to nitrocellulose membrane (Whatman) and blocking, samples were incubated with the following primary rabbit antibodies: anti-IRF-4 (Epitomics), anti-glyceraldehyde-3-phosphate dehydrogenase (GAPDH; Sigma), or anti-ppRb Ser807/811 (Santa Cruz Biotechnology). Secondary anti-rabbit IgG-HRP (GE Healthcare) was used and the blots were developed using enhanced chemiluminescence (ECL; Thermo Scientific). Films were imaged using a Multilmage™ Light Cabinet (Alpha Innotech Corp.) and analyzed using NIH Image J. Bands were normalized to a GAPDH loading control and expressed as percentage band intensity of untreated cells.
# ppRb in NCI-H929 = test: Western blot of ppRb; conditions: NCI-H929, 1 nM, 48 hours
# Protocol: as §10, §11
# ppRb in OCI-My5 = test: Western blot of ppRb; conditions: OCI-My5, 1 nM, 48 hours
# Protocol: as §10, §11
# IRF-4 in U266 = test: Western blot of IRF-4; conditions: U266, 1 nM, 2 days
# Protocol: as §10
# Cells were lysed using RIPA buffer (50 mM Tris-HCl pH 8, 150 mM NaCl, 1% NP-40, 0.5% sodium deoxycholate, 0.1% SDS) containing a protease inhibitor cocktail (Roche Applied Science). The cytosolic fractions were reduced with β-mercaptoethanol and separated by SDS PAGE. […] Films were imaged using a Multilmage™ Light Cabinet (Alpha Innotech Corp.) and analyzed using NIH Image J. Bands were normalized to a GAPDH loading control and expressed as percentage band intensity of untreated cells.
# [19] = tested on: primary myeloma cells from patients; test: Treatment of primary myeloma cells from patients (trypan blue / MTT); conditions: 25 nM, 72 h
# Protocol: Trypan blue and MTT assays were used to determine the number of viable cells. The percentage of viable recovered cells was calculated based upon the number of viable cells recovered from DMSO-treated control cells, which was arbitrarily designated as 100%.
# Percent viable cell recovery was determined by trypan blue staining, with untreated control cells designated as 100%.
substance,measurement,setting,value
"IFNα: recombinant human interferon alpha 2, unfused","cell viability / growth inhibition (MTS assay), result in words",NCI-H929 [1],very similar activity
same,"induction of apoptosis at low concentration, result in words","ANBL-6 [2]; ANBL-6, 1 pM",did not cause apoptosis
same,"induction of apoptosis, result in words","ANBL-6 [2]; ANBL-6, 500 pM, listed as IFNα2",caused apoptosis
same,"induction of apoptosis at low concentration, result in words","MM1-144 [3]; MM1-144, 1 pM",did not cause apoptosis
same,"induction of apoptosis, result in words","MM1-144 [3]; MM144 (MM1-144), 500 pM",caused apoptosis
same,"induction of apoptosis, result in words","NCI-H929 [4]; H929 (NCI-H929), 500 pM, listed as IFNα2",caused apoptosis
same,"induction of apoptosis at low concentration, result in words","NCI-H929 [4]; NCI-H929, 1 pM",did not cause apoptosis
same,"induction of apoptosis at low concentration, result in words","OCI-My5 [5]; OCI-My5, 5 pM",no effect
same,"induction of apoptosis, result in words",OCI-My5 [5],did not induce apoptosis; also recorded: did not cause apoptosis or blocks to cell cycle progression
same,"induction of apoptosis, result in words",OCI-My5 [5]; listed as IFNα2,caused apoptosis
same,"induction of apoptosis at low concentration, result in words","U266 [6]; U266, 1 pM",no effect
same,"induction of apoptosis, result in words","U266 [6]; U266, 500 pM, listed as IFNα2",caused apoptosis
same,"changes in cell cycle / DNA content, result in words",8226/S,did not exhibit any changes in cell cycle or DNA content
same,% G1,ANBL-6 [7],64.8%
same,% G2/M,ANBL-6 [7],17.0%
same,% S,ANBL-6 [7],14.3%
same,>G2,ANBL-6 [7],0.0%
same,Sub G0/G1,ANBL-6 [7],19.8%
same,"changes in cell cycle / DNA content, result in words",ANBL-6 [7],did not exhibit any changes in cell cycle or DNA content
same,% G1,MM1-144 [8],21.0%
same,% G2/M,MM1-144 [8],34.2%
same,% S,MM1-144 [8],31.5%
same,>G2,MM1-144 [8],11.6%
same,Sub G0/G1,MM1-144 [8],10.3%
same,% G1,NCI-H929 [9],41.5%
same,% G2/M,NCI-H929 [9],25.4%
same,% S,NCI-H929 [9],21.7%
same,>G2,NCI-H929 [9],7.6%
same,Sub G0/G1,NCI-H929 [9],21.2%
same,% G1,OCI-My5 [10],30.1%
same,% G2/M,OCI-My5 [10],19.2%
same,% S,OCI-My5 [10],45.6%
same,>G2,OCI-My5 [10],1.2%
same,Sub G0/G1,OCI-My5 [10],19.0%
same,"changes in cell cycle / DNA content, result in words",OCI-My5 [10],did not cause apoptosis or blocks to cell cycle progression
same,% G1,U266 [11],52.5%
same,% G2/M,U266 [11],14.3%
same,% S,U266 [11],23.6%
same,>G2,U266 [11],5.7%
same,Sub G0/G1,U266 [11],14.0%
same,"changes in cell cycle / DNA content, result in words",U266 [11],did not exhibit any changes in cell cycle or DNA content
same,"β-gal activity at pH 6 (senescence), result in words",ANBL-6 [12],no increases
same,"β-gal activity at pH 6 (senescence), result in words",MM1-144 [13],increases in β-gal activity
same,"β-gal activity at pH 6 (senescence), result in words",NCI-H929 [14],increases in β-gal activity
same,"β-gal activity at pH 6 (senescence), result in words",OCI-My5 [15],little or no increase in β-gal activity
same,"β-gal activity at pH 6 (senescence), result in words",U266 [16],no increase under any conditions
same,"proliferation (3[H]-thymidine incorporation), result in words",OCI-My 5 cells,decrease in proliferation
same,"Ki-67 negative (non-dividing) cells, result in words",MM1-144 [17],more Ki-6T cells as compared to untreated control
same,"Ki-67 negative (non-dividing) cells, result in words",NCI-H929 [18],more Ki-6T cells as compared to untreated control
same,ppRb levels (Western blot),ppRb in MM1-144,decreased
same,ppRb levels (Western blot),ppRb in NCI-H929,decreased
same,ppRb levels (Western blot),ppRb in OCI-My5,decreased
same,IRF-4 expression (Western blot),IRF-4 in U266,decrease was similar
same,"viability of primary myeloma cells, result in words",[19],little effect

# Entries after “also recorded” stand apart in the source; their conditions may differ.
